Experimental findings from PubChem BioAssay AID504937 (National Center for Advancing Translational Sciences (NCATS), 2011) are described below.

Sequences of proteins named here, by UniProt entry; tags and fusion partners are left off. Residues count along the entry.
UniProt P17405, 47-631 limits assumed: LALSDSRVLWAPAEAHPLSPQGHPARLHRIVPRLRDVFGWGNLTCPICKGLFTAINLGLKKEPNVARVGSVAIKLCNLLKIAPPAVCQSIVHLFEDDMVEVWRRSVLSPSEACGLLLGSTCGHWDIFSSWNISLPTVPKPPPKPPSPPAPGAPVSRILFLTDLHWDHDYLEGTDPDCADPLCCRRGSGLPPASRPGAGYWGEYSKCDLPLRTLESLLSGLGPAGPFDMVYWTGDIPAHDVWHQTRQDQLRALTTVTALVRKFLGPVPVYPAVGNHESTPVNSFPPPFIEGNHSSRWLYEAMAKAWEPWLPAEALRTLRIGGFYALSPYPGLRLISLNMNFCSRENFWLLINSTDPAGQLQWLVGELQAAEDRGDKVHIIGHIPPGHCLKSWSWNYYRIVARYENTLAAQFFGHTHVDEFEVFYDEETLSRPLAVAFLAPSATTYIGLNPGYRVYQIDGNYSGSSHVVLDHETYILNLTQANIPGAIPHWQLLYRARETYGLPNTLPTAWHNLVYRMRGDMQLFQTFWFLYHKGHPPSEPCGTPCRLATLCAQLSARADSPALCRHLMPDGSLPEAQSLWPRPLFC

The structures appear in SMILES notation. The entries are a selection whose mix differs from that of the whole data set. Active and inactive are the calls of the source. Calls come from the whole dose curve; as a rule, active = well fitted inhibition curve with a large enough effect; inconclusive = small, poorly fitted or top-dose-only effect; inactive = no such curve, though single readings can be large or run the other way.

This test has as its target Sphingomyelin phosphodiesterase (Homo sapiens) (UniProt P17405). As to the kind of experiment: Inhibitors of Secretory Acid Sphingomyelinase (S-ASM): qHTS. Conditions: placental ASM, HMU-PC fluorogenic substrate (series up to 57.5 µM), 60 min; at 57.5 µM (top of the series). In general terms: qHTS replaces the single test concentration by a dilution series.
Regarding `CCOC(=O)c1ccc(NP(C)(=O)Oc2ccc(Cl)cc2)cc1` (configuration not stated), the activity change, negative = inhibition is inactive: -0.914%.

Turning to `CP(=O)(OC12CC3CC(CC(C3)C1)C2)OC12CC3CC(CC(C3)C1)C2`, the activity change, negative = inhibition is inactive: -3.18%.

In the case of `Nc1ccc2c(ccc3cccnc32)n1.O=[N+]([O-])c1cc([N+](=O)[O-])c(O)c([N+](=O)[O-])c1`, the activity change, negative = inhibition is inactive: 12.3%.

For the molecule `CN(C)C(=O)c1c([N+](=O)[O-])cc([N+](=O)[O-])cc1[N+](=O)[O-]`, the activity change, negative = inhibition was inactive: 4.55%.

`COc1ccccc1OP(C)(=O)Nc1ccccc1Br` (configuration not stated): the activity change, negative = inhibition was inactive: 2.84%.

With `CC(C)(C)c1ccc(OP(C)(=O)O)cc1`, the activity change, negative = inhibition was inactive: 2.86%.

Regarding `CP(=O)(Nc1ccc(Cl)cc1)Oc1ccc(F)cc1` (configuration not stated), the activity change, negative = inhibition was inactive: 4.8%.

Consider `COc1ccccc1OP(C)(=O)Nc1c(C)n(C)n(-c2ccccc2)c1=O` (configuration not stated), for which the activity change, negative = inhibition was inactive: -0.513%.

As for `O=C(OCCCN1CCCC1)C(O)(c1ccccc1)C1CCCCC1` (configuration not stated), the activity change, negative = inhibition was inactive: 5.11%.

Consider `CP(=O)(Oc1ccccc1)N1CCOC1=O` (configuration not stated), for which the activity change, negative = inhibition is inactive: 2.68%.

As for `CCc1ccc(OP(C)(=O)Nc2cccnc2)cc1` (configuration not stated), the activity change, negative = inhibition is inactive: -3.12%.

`CCN(CC)CC(O)COC(=O)C(O)(c1ccccc1)C1CCCCC1` (configuration not stated): the activity change, negative = inhibition was inactive: 5.63%.

`CP(=O)(Nc1ccccn1)Oc1ccccc1` (configuration not stated): the activity change, negative = inhibition was inactive: 5.3%.

For the molecule `COc1ccccc1OP(C)(=O)Nc1ccc(C)cc1C` (configuration not stated), the activity change, negative = inhibition was inactive: -1.92%.

In the case of `CCc1ccc(OP(C)(=O)O)cc1`, the activity change, negative = inhibition is inactive: 7.15%.

For `Cc1c(NP(C)(=O)Oc2ccc(C(C)C)cc2)c(=O)n(-c2ccccc2)n1C` (configuration not stated), the activity change, negative = inhibition is inactive: 3.63%.

Consider `COc1ccc(OP(C)(=O)Nc2ccccn2)cc1` (configuration not stated), for which the activity change, negative = inhibition was inactive: -2.15%.

On to `CN(C)CCOC(=O)C(O)(c1ccccc1)C1CCCC1` (configuration not stated), for which the activity change, negative = inhibition was inactive: 5.82%.

As for `COc1ccccc1OP(C)(=O)Nc1ccc(Br)cc1` (configuration not stated), the activity change, negative = inhibition was inactive: -0.0402%.

Consider `CP(=O)(Nc1ccc(Cl)cc1Cl)Oc1ccccc1` (configuration not stated), for which the activity change, negative = inhibition was inactive: 5.45%.

For the molecule `CP(=O)(OCCOc1ccccc1)OCCOc1ccccc1`, the activity change, negative = inhibition was inactive: -2.73%.

As for `COc1ccccc1OP(C)(=O)Nc1ccc(C)c(C)c1` (configuration not stated), the activity change, negative = inhibition is inactive: 4.58%.

For `Cc1cc(C)cc(OP(C)(=O)Nc2cccc(C(F)(F)F)c2)c1` (configuration not stated), the activity change, negative = inhibition was inactive: 3.56%.

As to `CP(=O)(Nc1ccccc1)Oc1ccc(F)cc1` (configuration not stated), the activity change, negative = inhibition is inactive: 6.49%.

For the molecule `CCCCCOc1ccc(NP(C)(=O)Oc2ccc(Cl)cc2Cl)cc1` (configuration not stated), the activity change, negative = inhibition is inactive: -10.3%.

Regarding `Cc1c([N+](=O)[O-])cc([N+](=O)[O-])c(Br)c1[N+](=O)[O-]`, the activity change, negative = inhibition is inactive: -2.62%.

Regarding `CCN(CC)CCCOC(=O)C(O)(c1ccccc1)C1CCCCC1` (configuration not stated), the activity change, negative = inhibition was inactive: -2.39%.

With `CCOC(=O)c1ccc(NP(C)(=O)Oc2ccc(F)cc2)cc1` (configuration not stated), the activity change, negative = inhibition is inactive: 3.85%.

Consider `COc1ccc(OP(C)(=O)Nc2ccc(SC(F)(F)F)cc2)cc1` (configuration not stated), for which the activity change, negative = inhibition was inactive: -1.52%.

Regarding `O=C(OCCN1CCN(CCOCc2ccccc2)CC1)C(O)(c1ccccc1)c1ccccc1`, the activity change, negative = inhibition was inactive: 0.468%.

As for `CP(=O)(Nc1ccccc1F)Oc1ccccc1` (configuration not stated), the activity change, negative = inhibition is inactive: -2.54%.

For `CC(C)c1ccc(OP(C)(=O)Nc2ccc(SC(F)(F)F)cc2)cc1` (configuration not stated), the activity change, negative = inhibition is inactive: -16.9%.

For the molecule `Cc1ccccc1NP(C)(=O)Nc1ccccc1C`, the activity change, negative = inhibition is inactive: 0.536%.

Turning to `CP(=O)(Nc1ccc2c(c1)OCCO2)Oc1ccccc1` (configuration not stated), the activity change, negative = inhibition was inactive: -0.895%.

As for `CCOP(C)(=S)SCC(=O)NC(C)(CC)C(=O)O` (configuration not stated), the activity change, negative = inhibition was inactive: 4.92%.

On to `CP(=O)(Nc1ccc(SC(F)(F)F)cc1)Oc1ccc(F)cc1` (configuration not stated), for which the activity change, negative = inhibition was inactive: -0.593%.

Take `Cc1c(C(c2ccc3c(c2)OCO3)c2c(C)n(C)n(-c3ccccc3)c2=O)c(=O)n(-c2ccccc2)n1C.O=[N+]([O-])c1cc([N+](=O)[O-])c(O)c([N+](=O)[O-])c1`: the activity change, negative = inhibition was inactive: 6.87%.

For `O=[N+]([O-])c1ccc(OP2(=O)COCCO2)cc1` (configuration not stated), the activity change, negative = inhibition was inactive: 3.58%.

On to `Cc1cc(-c2cccc3ccccc23)c(C)cn1.O=[N+]([O-])c1cc([N+](=O)[O-])c(O)c([N+](=O)[O-])c1`, for which the activity change, negative = inhibition is inactive: -0.102%.

Regarding `CN(C)CCOC(=O)C(O)(c1ccccc1)C1CCCCC1` (configuration not stated), the activity change, negative = inhibition is inactive: -1.68%.

As for `COc1ccc(NP(C)(=O)Oc2ccccc2OC)cc1` (configuration not stated), the activity change, negative = inhibition is inactive: -3.07%.

As to `COc1ccc(OP(C)(=O)Nc2cccc(Br)c2)cc1` (configuration not stated), the activity change, negative = inhibition is inactive: 3.23%.

On to `CCCOc1ccc(NP(C)(=O)Oc2ccc(Cl)cc2)cc1` (configuration not stated), for which the activity change, negative = inhibition is inactive: -1.92%.

For `CP(=O)(Nc1ccc(SC(F)(F)F)cc1)Oc1ccccc1` (configuration not stated), the activity change, negative = inhibition is inactive: -1.05%.

Consider `COc1ccccc1OP(C)(=O)Nc1c(C)cccc1C` (configuration not stated), for which the activity change, negative = inhibition is inactive: 3.69%.

For `CN1CCCCC1COC(=O)C1(O)c2ccccc2CCc2ccccc21` (configuration not stated), the activity change, negative = inhibition was inactive: 0.571%.

As to `CC1=C2N=C(C=C3N=C(C(C)=C4[N-][C@@](C)([C@@H]5N=C1[C@](C)(CCC(=O)NC[C@@H](C)OP(=O)([O-])O[C@H]1[C@@H](O)[C@@H](n6cnc7cc(C)c(C)cc76)O[C@@H]1CO)[C@H]5CC(N)=O)[C@@](C)(CC(N)=O)[C@@H]4CCC(N)=O)[C@@](C)(CC(N)=O)[C@@H]3CCC(N)=O)C(C)(C)[C@@H]2CCC(N)=O.[C-]#N.[Co+3]`, the activity change, negative = inhibition was inactive: -1.25%.

As to `O=[N+]([O-])c1cc([N+](=O)[O-])c(Nc2nnnn2CCO)c([N+](=O)[O-])c1`, the activity change, negative = inhibition was inactive: -19.7%.

As for `Cc1nc2ccc3ccccc3c2s1.O=[N+]([O-])c1cc([N+](=O)[O-])c(O)c([N+](=O)[O-])c1`, the activity change, negative = inhibition is inactive: -3.11%.

For `O=[N+]([O-])c1cc([N+](=O)[O-])c(-c2cnn(-c3ccccc3)c2)c([N+](=O)[O-])c1`, the activity change, negative = inhibition was inactive: -2.85%.

As to `O=[N+]([O-])c1cc([N+](=O)[O-])c(-n2nnc3ccccc32)c([N+](=O)[O-])c1`, the activity change, negative = inhibition was inactive: -0.878%.

On to `Cc1ccc(C)c(NP(C)(=O)Oc2ccccc2)c1` (configuration not stated), for which the activity change, negative = inhibition was inactive: 1.04%.

For the molecule `Cc1cc(C)cc(OP(C)(=O)Nc2ccccn2)c1` (configuration not stated), the activity change, negative = inhibition was inactive: 4.15%.

In the case of `CP(=O)(Nc1cccc(Br)c1)Oc1ccccc1` (configuration not stated), the activity change, negative = inhibition is inactive: -2.04%.

For the molecule `CCOC(=O)c1ccc(NP(C)(=O)Oc2cc(C)cc(C)c2)cc1` (configuration not stated), the activity change, negative = inhibition was inactive: -1.15%.

On to `Cc1cc(C)cc(OP(C)(=O)Nc2ccc(C)cc2C)c1` (configuration not stated), for which the activity change, negative = inhibition was inactive: 1.08%.

As to `COc1ccccc1OP(C)(=O)Nc1cccc(Br)c1` (configuration not stated), the activity change, negative = inhibition is inactive: -0.361%.

Regarding `CC1=NCCc2c1[nH]c1ccccc21.O=[N+]([O-])c1cc([N+](=O)[O-])c(O)c([N+](=O)[O-])c1`, the activity change, negative = inhibition was inactive: 20.9%.

Take `Cc1cc(C)cc(OP(C)(N)=O)c1` (configuration not stated): the activity change, negative = inhibition is inactive: -4.01%.

With `COc1ccccc1OP(C)(=O)Nc1cc(Cl)ccc1C` (configuration not stated), the activity change, negative = inhibition is inactive: -0.732%.

On to `COc1ccc(OP(C)(=O)Nc2cccc(F)c2)cc1` (configuration not stated), for which the activity change, negative = inhibition was inactive: 4.02%.

With `COc1ccccc1OP(C)(=O)Nc1ccc(C)cc1` (configuration not stated), the activity change, negative = inhibition was inactive: 2.32%.

`Cc1ccc(NP(C)(=O)Oc2ccccc2)c(C)c1` (configuration not stated): the activity change, negative = inhibition is inactive: -2.48%.

As to `CCOC(=O)c1ccc(NP(C)(=O)Oc2ccccc2)cc1` (configuration not stated), the activity change, negative = inhibition is inactive: -0.11%.

Consider `O=[N+]([O-])c1ccc2c(c1)C=Nc1ccccc1O2`, for which the activity change, negative = inhibition was inactive: -2.69%.

Consider `CC(C)(C)c1ccc(OP(C)(=O)Nc2ccc(SC(F)(F)F)cc2)cc1` (configuration not stated), for which the activity change, negative = inhibition was inactive: -19.2%.

On to `Cc1cccc(C)c1OP(C)(N)=O` (configuration not stated), for which the activity change, negative = inhibition was inactive: -1.35%.

On to `O=[N+]([O-])c1cc([N+](=O)[O-])c(Nc2cccnc2)c([N+](=O)[O-])c1`, for which the activity change, negative = inhibition is inactive: -5.99%.

Regarding `CCN(CC)CCCOC(=O)C(O)(c1ccccc1)c1ccccc1`, the activity change, negative = inhibition was inactive: -1.34%.

As to `CP(=O)(Nc1ccccn1)Oc1ccc(Cl)cc1` (configuration not stated), the activity change, negative = inhibition was inactive: 1.96%.

Regarding `CCOC(=O)c1ccc(NP(C)(=O)Oc2ccc(OC)cc2)cc1` (configuration not stated), the activity change, negative = inhibition is inactive: -1.83%.

With `O=[N+]([O-])c1cc([N+](=O)[O-])c(O)c([N+](=O)[O-])c1.c1ccc(Oc2ccncc2)cc1`, the activity change, negative = inhibition is inactive: 11.2%.

For `CCOP(C)(=S)SCC(=O)NC(C)C(=O)O` (configuration not stated), the activity change, negative = inhibition is inactive: 4.72%.

With `CP(=O)(NC(=O)Nc1ccccc1)Oc1ccccc1` (configuration not stated), the activity change, negative = inhibition is inactive: 7.14%.

As to `CCc1ccc(OP(C)(=O)N2CCN(c3ccc([N+](=O)[O-])cc3)CC2)cc1` (configuration not stated), the activity change, negative = inhibition was inactive: -16.9%.

`Cc1cc(C)cc(OP(C)(=O)Nc2ccc(SC(F)(F)F)cc2)c1` (configuration not stated): the activity change, negative = inhibition is inactive: 1.27%.

Consider `Cc1cccc(C)c1OP(C)(=O)Nc1ccc(SC(F)(F)F)cc1` (configuration not stated), for which the activity change, negative = inhibition was inactive: 0.389%.

Take `CP(=O)(Nc1ccc(SC(F)(F)F)cc1)Oc1ccc(Cl)cc1` (configuration not stated): the activity change, negative = inhibition is inactive: -11.9%.

Regarding `CP(=O)(Oc1ccccc1)OC(c1ccccc1)C(F)(F)F` (configuration not stated), the activity change, negative = inhibition was inactive: -1.47%.

Take `CP(=O)(Nc1ccccc1Br)Oc1ccccc1` (configuration not stated): the activity change, negative = inhibition was inactive: 3.13%.

Regarding `COc1ccccc1OP(C)(=O)Nc1ccccc1` (configuration not stated), the activity change, negative = inhibition was inactive: 5.32%.

Consider `CP(=S)(Nn1cnnc1)Oc1ccccc1` (configuration not stated), for which the activity change, negative = inhibition was inactive: 0.96%.
